# Experimental data taken from patent US20130310387A1, “Monocyclic Heteroaryl Cycloalkyldiamine Derivatives” (NOVARTIS AG, priority 2012, published 2013).
# Biological target: Syk (2-635) (KSYK_HUMAN, P43405) (Homo sapiens, UniProt P43405)
# Assay: Syk enzyme assay (chip based microfluidic mobility shift assay)
# Format: biochemical
# Details: 4 μM ATP, 4 nM Syk, 60 minutes at 30° C.
# Method: A number of compounds of the present invention were assayed in a chip based microfluidic mobilitiy shift assay. All assays were performed in 384 well microtiter plates. Each assay plate contained 8-point serial dilutions for 40 test compounds, as well as four 8-point serial dilutions of staurosporine as reference compound, plus 16 high- and 16 low controls. Liquid handling and incubation steps were done on a Thermo CatX workstation equipped with a Innovadyne Nanodrop Express. Between pipetting steps, tips were cleaned in wash cycles using wash buffer. The assay plates were prepared by addition of 50 nl per well of compound solution in 90% DMSO. […] Plates with terminated kinase reactions were transferred to the Caliper LC3000 workstations for reading. […] Analytes are transported through the chip by constant buffer flow and the migration of the substrate peptide is monitored by the fluorescence signal of its label. […] Kinase activities were calculated from the amounts of formed phospho-peptide. […] values were determined from percent inhibition values at different compound concentrations by non-linear regression analysis. […]
compound,measurement,value
"Cn1cc2c(Nc3nc(N[C@@H]4CCCC[C@@H]4N)nnc3C(N)=O)cccc2n1 [Example 2.2, 3-((1R,2S)-2-Amino-cyclohexylamino)-5-(2-methyl-2H-indazol-4-ylamino)-[1,2,4]triazine-6-carboxylic acid amide]",IC50,5.1 nM
